Laboratory results reported in ChEMBL document CHEMBL3875218, “Bifunctional conjugates with potent inhibitory activity towards cyclooxygenase and histone deacetylase” (Bioorg Med Chem, 2017).

Test: Selectivity index, ratio of IC50 for sheep COX1 to IC50 for recombinant human COX2

Ratio IC50: > 2
Structure (SMILES): COC(=O)Cc1c(C)n(Cc2ccc(-c3cn(CCCCCCCC(=O)NO)nn3)cc2)c2ccc(OC)cc12
